In PubChem BioAssay (EPA / NIEHS):
The entries are a selection whose mix differs from that of the whole data set. Active and inactive are the calls of the source. How the source made its calls: active means hit-call score of the fitted dose curve at least 0.9, where 1 is the maximum; inactive means score below 0.9.

Test: ATG_RORE_CIS: Attagene CIS-FACTORIAL HepG2 Assay for human RAR-related Orphan Receptor Element (RORE) (AID 2282959)
Details: HepG2 Attagene cis-factorial RORE reporter, mRNA; actives raise or lower the signal

| SMILES | outcome | AC50 |
| --- | --- | --- |
| COc1ccc(O)cc1 | inactive |  |
| CCn1nc(C)c2c1C(=O)NCC(c1ccc(O)cc1)=N2 | inactive |  |
| CCOc1ccc(N=Nc2ccc(C=Cc3ccc(N=Nc4ccc(OCC)cc4)cc3S(=O)(=O)O)c(S(=O)(=O)O)c2)cc1 | inactive |  |
| Cc1ccc(S(N)(=O)=O)cc1 | inactive |  |
| CCCCCCCCCCC=CC#N | inactive |  |
| NCCCN1CCOCC1 | inactive |  |
| O=c1cc(-c2ccccc2)oc2cc(O)cc(O)c12 | inactive |  |
| C=C(C)C(=O)OCCOC(=O)CC(C)=O | inactive |  |
| Nc1nc2ccc([N+](=O)[O-])cc2s1 | inactive |  |
| OCCN1CCNCC1 | inactive |  |
| O=C(CCCCCCCCc1cccnc1)N1CCC(C=C(c2ccccc2)c2ccccc2)CC1 |  | active: 2.81 µM |
| CCNc1nc(N)nc(Cl)n1 | inactive |  |
| CCN(Cc1cccc(S(=O)(=O)O)c1)c1ccc(C(=C2C=CC(=[N+](CC)Cc3cccc(S(=O)(=O)[O-])c3)C=C2)c2ccccc2)cc1 | inactive |  |
| CCC1(C)NC(=O)NC1=O (centres undefined) | inactive |  |
| CC(=O)CC(=O)Nc1ccccc1 | inactive |  |
| CC1=CCC(C(C)(C)O)CC1 (centres undefined) | inactive |  |
| CC1OC(=O)C(C)OC1=O (centres undefined) | inactive |  |
| Cc1cc(=O)oc2cc(O)ccc12 | inactive |  |
| CN(C)C(=O)NC1(c2ccccc2)CCN(CC[C@@]2(c3ccc(F)c(F)c3)CN(C(=O)c3ccccc3)CCO2)CC1 | inactive |  |
| c1ccc2c(c1)[nH]c1ccccc12 | inactive |  |

| SMILES | outcome | AC50 |
| --- | --- | --- |
| COC(=O)CC(=O)OC | inactive |  |
| Cc1ccc(N(C)C)cc1 | inactive |  |
| CC(CCO)CCc1ccccc1 (centres undefined) | inactive |  |
| CCCCCC=O | inactive |  |
| CC(C)Nc1nc(N)nc(Cl)n1 | inactive |  |
| CCC(C)(C)C1CCC(O)CC1 (centres undefined) | inactive |  |
| CC(C)(CO)[C@@H](O)C(=O)NCCC(=O)O | inactive |  |
| O=P(OC(CCl)CCl)(OC(CCl)CCl)OC(CCl)CCl | inactive |  |
| CCCCC(CC)COC(=O)CCCCCCCC(=O)OCC(CC)CCCC (centres undefined) | inactive |  |
| CCCCCC1C(=O)CCC1CC(=O)OC (centres undefined) | inactive |  |
| CN(C)c1cccc(O)c1 | inactive |  |
| CC(C)(C)c1csc(-c2cc3cc(OCc4ccccc4CC(=O)O)ccc3o2)n1 |  | active: 16.3 µM |
| Oc1ccc(Cl)cc1Cc1cc(Cl)ccc1O |  | active: 5.31 µM |
| NNS(=O)(=O)c1ccc(Oc2ccc(S(=O)(=O)NN)cc2)cc1 | inactive |  |
| Nc1ccc2cc(S(=O)(=O)O)cc(O)c2c1N=Nc1ccccc1C(F)(F)F | inactive |  |
| NC(=O)Nc1ccc(Cl)cc1 | inactive |  |
| Nc1c(Cl)cc(Cl)cc1[N+](=O)[O-] | inactive |  |
| N#Cc1ccc(C(c2ccc(C#N)cc2)n2cncn2)cc1 | inactive |  |
| CC1(C)C2=CCCC(C)(C)[C@]23CC[C@H]1C3 | inactive |  |
